Measured values from ChEMBL document CHEMBL1961794, “Regulation of circadian behaviour and metabolism by synthetic REV-ERB agonists” (Nature, 2012).

Legend:
[1] = biological target: T1, Nuclear receptor subfamily 1 group D member 1 (Homo sapiens, UniProt P20393); assay: REV-ERB-alpha mediated transcriptional suppression at Bmal1 promoter in HEK293 cell reporter assay; type: functional, cell-based
T1 sequence (P20393 whole entry): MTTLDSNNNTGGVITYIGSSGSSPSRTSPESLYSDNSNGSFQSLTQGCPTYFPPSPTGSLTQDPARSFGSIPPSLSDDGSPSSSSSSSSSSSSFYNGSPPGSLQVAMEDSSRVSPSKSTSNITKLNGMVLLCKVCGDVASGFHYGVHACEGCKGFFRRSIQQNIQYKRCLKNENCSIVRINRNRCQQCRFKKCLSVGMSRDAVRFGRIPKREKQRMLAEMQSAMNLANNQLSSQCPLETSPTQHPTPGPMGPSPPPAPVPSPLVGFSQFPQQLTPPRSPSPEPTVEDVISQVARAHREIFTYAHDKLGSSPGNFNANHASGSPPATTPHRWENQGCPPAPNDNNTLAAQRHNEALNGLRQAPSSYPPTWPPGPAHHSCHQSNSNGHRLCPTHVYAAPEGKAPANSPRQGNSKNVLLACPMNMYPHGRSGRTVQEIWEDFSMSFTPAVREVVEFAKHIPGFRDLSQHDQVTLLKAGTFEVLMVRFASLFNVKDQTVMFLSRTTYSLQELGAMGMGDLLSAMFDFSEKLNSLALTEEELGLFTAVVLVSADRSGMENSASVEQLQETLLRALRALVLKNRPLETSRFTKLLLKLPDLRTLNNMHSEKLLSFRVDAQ

[2] = biological target: T1, Nuclear receptor subfamily 1 group D member 1; assay: Increased REV-ERB-alpha LBD dependent repressor activity in HEK293 cell reporter assay; type: cell-based
[3] = biological target: T1, Nuclear receptor subfamily 1 group D member 1; assay: Dissociation constant for binding to REV-ERB-alpha by circular dichroism

CCOC(=O)N1CCC(CN(Cc2ccc(Cl)cc2)Cc2ccc([N+](=O)[O-])s2)C1 (stereo not drawn) [SR9009]
IC50 [1]: 710 nM (agonist)
IC50 [2]: 670 nM (agonist)
Kd [3]: 800 nM
